The test deals with Bifunctional protein GlmU (Streptococcus pneumoniae serotype 4 (strain ATCC BAA-334 / TIGR4), UniProt Q97R46). Kind of test: Inhibition of Streptococcus pneumoniae acetyltransferase activity of GlmU using acetyl-CoA and glucosamine-1-phosphate after 30 mins by Ellman's method. (In Ellman's method for cholinesterases, released thiocholine reacts with DTNB.)

Chains of the proteins cited; added tags and fusions are not shown. Lines headed by an entry give the natural chain unless they say otherwise; changes in a name come on top.
UniProt Q97R46: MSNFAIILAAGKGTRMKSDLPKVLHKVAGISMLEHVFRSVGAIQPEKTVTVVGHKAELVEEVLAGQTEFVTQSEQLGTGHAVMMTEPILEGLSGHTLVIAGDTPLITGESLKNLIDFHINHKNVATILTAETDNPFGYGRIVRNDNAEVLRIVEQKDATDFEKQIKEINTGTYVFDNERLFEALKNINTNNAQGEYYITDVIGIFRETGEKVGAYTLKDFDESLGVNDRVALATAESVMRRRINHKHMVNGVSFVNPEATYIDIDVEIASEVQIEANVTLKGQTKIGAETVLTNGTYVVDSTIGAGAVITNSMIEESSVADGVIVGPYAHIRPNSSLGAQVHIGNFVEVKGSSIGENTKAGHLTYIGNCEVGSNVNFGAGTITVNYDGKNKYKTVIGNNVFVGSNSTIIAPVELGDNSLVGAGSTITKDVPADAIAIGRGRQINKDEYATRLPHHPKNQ

As usually defined, the IC50 is the concentration that inhibits the measured activity by half. Consider `COc1cc(OC)c(S(=O)(=O)NCc2ccccc2N2CCCCC2)cc1NC(C)=O`, for which the IC50 stood at 110 µM.

For the origin of these results see ChEMBL document CHEMBL1949578, “Inhibitors of acetyltransferase domain of N-acetylglucosamine-1-phosphate-uridyltransferase/glucosamine-1-phosphate-acetyltransferase (GlmU). Part 1: Hit to lead evaluation of a novel arylsulfonamide series” (Bioorg Med Chem Lett, 2012).
